# System: recombinant CyP-D
# Experimental: A, B, PTP opening of digitonized wild-type (A) or CyP-D knock-out (B) fibroblasts was measured with the whole-cell CRC assay. Experiments were started by the addition of digitonized cells (not shown) followed by pulses of Ca^2+ (5 µM each) and are plotted as in Figure 1B. The use of AA is shown with a red trace. Alamethicin (Alm, 1 µM) was added at the end of each measurement to fully release Ca^2+ from intracellular stores. […] D, isomerase activity assay (see Materials and Methods): after addition of the substrate peptide N-succinyl-Ala-Ala-cis-trans-Pro-Phe-p-nitroanilide (arrow), chimotrypsin cleaves the trans-isomeric form, causing a rise in absorbance.
substance,measurement,value
cyclosporin A [CsA],inhibition of CyP-D peptidyl-prolyl cis-trans isomerase activity,act as inhibitors of the enzymatic activity of CyP-D
